Test results published in PubChem BioAssay (Tox21).
Several values for one entry are separate records, joined by “and”; a condition that tells them apart may be missing. Equal entries are not always repeated. The entries are a selection whose mix differs from that of the whole data set. Results filed as inconclusive are left out. Activity calls are given as the source filed them. Calls come from the whole dose curve; as a rule, active = well fitted curve in the direction sought with a large enough effect in the signal ratio in the repeat runs (not every such curve was filed as active); inconclusive = weak or mixed curves, or a change in a side signal; inactive = no such curve, though single readings can be large or run the other way; the % refers to the signal ratio.

Assay: qHTS assay to identify small molecule agonists of the NFkB signaling pathway (AID 1159509)
Conditions: NFkB-bla ME-180 cells, beta-lactamase FRET ratio, 5 h; at 61 µM (top of the series)
Description: National Center for Advancing Translational Sciences [NCATS]
NIH Chemical Genomics Center [NCGC]
U.S. Environmental Protection Agency [EPA]
National Institutes of Environmental Health Sciences [NIEHS]
National Toxicology Program [NTP]
U.S. Food and Drug Administration [FDA]
Transcription factors and their stimulated target gene expression play pivotal roles across many cellular processes including responses to environmental stimuli. Proper regulation of associated pathways is critical to maintain cell health and function. Constitutive activation of transcription factor pathways has been implicated in tumors as it may block cellular functions such as apoptosis and lead to invasion and metastasis. One important transcription factor that stimulates gene expression in response to cytokines, UV radiation, and other stimuli is nuclear factor-kappa B (NFkB). To measure activation of the NFkB pathway, the CellSensor NFkB-bla ME-180 cell line (Life Technologies, Carlsbad, CA) that stably expresses beta-lactamase reporter gene under the regulation of a NF-kB response element was used. This assay allows measurement of the NFkB pathway activity induced by compounds in a ME-180 cell line. This system quantitates NF-kB activity using a FRET-based assay system where beta-lactamase expression disrupts FRET, allowing for fluorescent measurement of activity. This cell line has been used to screen the Tox21 10K compound library and to identify compounds that induce the NFkB pathway activity.
Tox21 Assay Protocol Summary:
NFkB-bla ME-180 cells were dispensed at 2,000 cells/6 uL of assay medium per well into black wall/clear-bottom 1536-well plates using a Multidrop Combi (ThermoFisher Scientific, Waltham, MA) dispenser. After the assay plates were incubated at 37 C and 5% CO2 for an overnight, 23 nL of compounds dissolved in DMSO, positive controls or DMSO only was transferred to the assay plate by a Pintool station (Kalypsys, San Diego, CA). The assay plates were incubated at 37 C and 5% CO2 for 5 hr. One uL of LiveBLAzer B/G FRET substrate (Life Technologies) was added using a Flying Reagent Dispenser (Aurora Discovery, San Diego, CA) and the plates were incubated at room temperature for 1.5 hr. Fluorescence intensity (405 nm excitation, 460 nm and 530 nm emissions) was measured using an Envision plate reader (PerkinElmer, Shelton, CT).
% is set by controls: 0 for no effect and ±100 for the full control effect.

Row | Compound | activation
1 | c1cnc2c(c1)ccc1cccnc12 | inactive: -0.578%
2 | C[C@](N)(Cc1ccc(O)c(O)c1)C(=O)O | inactive: 0.0555% and inactive: -1.04% and inactive: -0.687%

Same assay, conditions: NFkB-bla ME-180 cells, beta-lactamase FRET ratio, 5 h; at 61 µM (top of the series) unless noted

Row | Compound | activation
3 | S=C1NC=NC2N=CNC12 (stereo not given) | inactive: 0.0691%
4 | COc1cc2c(cc1OC)-c1cc3ccc(OC)c(OC)c3c[n+]1CC2 | inactive: -0.0066% [at 78.8 µM]
5 | CC(C)C[P+](C)(CC(C)C)CC(C)C | inactive: -0.19% [at 78.8 µM]
6 | CO/N=C(\C(=O)N[C@@H]1C(=O)N2C(C(=O)O)=C(CSc3nc(=O)c(O)nn3C)CS[C@H]12)c1csc(N)n1 | inactive: -0.422%
7 | CN(C)C/C=C(/c1ccc(Br)cc1)c1cccnc1 | inactive: -0.807%
8 | NC[C@H]1O[C@H](O[C@H]2[C@H](O[C@@H]3O[C@H](CO)[C@@H](O)[C@H]3O)C(O)[C@H](N)C[C@@H]2N)[C@H](N)[C@@H](O)[C@@H]1O (stereo not given in full) | inactive: -0.607% [at 6.95 µM]
9 | CCN[C@@H]1C[C@H](N)[C@@H](OC2OC(CN)=CCC2N)[C@H](O)[C@H]1O[C@H]1OC[C@](C)(O)[C@H](NC)[C@H]1O (stereo not given in full) | inactive: -0.0288% [at 0.628 µM]
10 | CCCN1C=CN(C)C1 | inactive: -1.25% [at 78.8 µM] and inactive: -0.347% [at 78.8 µM]
11 | O=C(O)[C@@H]1[C@H]2C[C@H]3c4[nH]c5ccccc5c4CCN3C[C@@H]2CC[C@@H]1O | inactive: 0.808%
12 | NC[C@H]1O[C@H](O[C@H]2[C@H](O)[C@@H](O[C@H]3O[C@H](CO)[C@@H](O)[C@H](N)[C@H]3O)[C@H](N)C[C@@H]2N)[C@H](O)[C@@H](O)[C@@H]1O | inactive: 0.0722% [at 6.95 µM]
13 | O=c1c(O)c(-c2ccc(O)c(O)c2)oc2cc(O)cc(O)c12 | inactive: -0.242% and inactive: -1.02%
14 | NCCCC(N)(C(=O)O)C(F)F (stereo not given) | inactive: -0.281%
15 | C[N+](C)(CCOc1ccccc1)Cc1cccs1 | inactive: -0.37%
16 | CC[N+](C)(CC)CCOC(=O)C(O)(c1ccccc1)C1CCCCC1 (stereo not given) | inactive: -0.82%
17 | C[N+]1(C)CCCC(OC(=O)C(O)(c2ccccc2)c2ccccc2)C1 (stereo not given) | inactive: 0.0018%
18 | C[N+]12CCC(CC1)C(OC(=O)C(O)(c1ccccc1)c1ccccc1)C2 (stereo not given) | inactive: -0.352%
19 | CC(NN)c1ccccc1 (stereo not given) | inactive: -0.304% [at 28.5 µM]
20 | [Ca+2] | inactive: -0.128%

Row | Compound | activation
21 | Cc1ncc(COP(=O)(O)O)c(C=O)c1O | inactive: -0.212%
22 | O=S(=O)(O)c1cccc2c(S(=O)(=O)O)cccc12 | inactive: 1.11%
23 | Nc1nc(-c2ccccc2)cs1 | inactive: -0.324%
24 | OC[C@H]1O[C@H](O[C@H]2O[C@H](CO)[C@@H](O)[C@H](O)[C@H]2O)[C@H](O)[C@@H](O)[C@@H]1O | inactive: -0.261% [at 78.8 µM]
25 | CC(C(=O)O)c1cccc(Oc2ccccc2)c1 (stereo not given) | inactive: 0.176%
26 | Cc1onc(-c2c(Cl)cccc2Cl)c1C(=O)N[C@@H]1C(=O)N2[C@@H]1SC(C)(C)[C@@H]2C(=O)O | inactive: -1.69%
27 | CCOc1ccc2ccccc2c1C(=O)N[C@@H]1C(=O)N2[C@@H]1SC(C)(C)[C@@H]2C(=O)O | inactive: -0.987%
28 | CC[N+](C)(CC)CCOC(=O)C1c2ccccc2Oc2ccccc21 | inactive: 1.07%
29 | COCCOc1cc2cc(C(=O)NC3CCN(C(C)C)CC3)n(CC(=O)Nc3ccc(Cl)cn3)c2cn1 | inactive: -0.381%
30 | Nc1c(CC(=O)O)cccc1C(=O)c1ccc(Br)cc1 | inactive: 0.134%
31 | FB(F)F | inactive: -1.13% [at 78.8 µM]
32 | C=CC[N+]1([C@H]2C[C@H]3[C@@H]4CC[C@H]5C[C@H](OC(C)=O)[C@@H](N6CCCCC6)C[C@]5(C)[C@H]4CC[C@]3(C)[C@H]2OC(=O)CC)CCCCC1 | inactive: -0.195%
33 | CCCCCCC[N+](CC)(CC)CCCCc1ccc(Cl)cc1 | inactive: 1.48%
34 | CC(=O)O[C@H]1C[C@@H]2CC[C@@H]3[C@H](CC[C@@]4(C)[C@H]3C[C@H]([N+]3(C)CCCCC3)[C@@H]4OC(C)=O)[C@@]2(C)C[C@@H]1N1CCCCC1 | inactive: -0.402%
35 | CC(C)(C)NCC(O)c1cc(O)cc(O)c1 (stereo not given) | inactive: -0.871%
36 | CN(C)C(=O)Oc1cccc([N+](C)(C)C)c1 | inactive: -0.116%
37 | CCN(CCO)CCCC(C)Nc1ccnc2cc(Cl)ccc12 (stereo not given) | inactive: 0.161% [at 6.95 µM]
38 | C[C@@H]1C[C@H]2[C@@H]3C[C@H](F)C4=CC(=O)C(Cl)=C[C@]4(C)[C@@]3(F)[C@@H](O)C[C@]2(C)[C@@]1(O)C(=O)CO | inactive: -0.818%

Same assay, conditions: NFkB-bla ME-180 cells, beta-lactamase FRET ratio, 5 h; at 78.8 µM (top of the series)

Row | Compound | activation
39 | c1cnc2c(c1)ccc1cccnc12 | inactive: 0.0475%
40 | C[C@](N)(Cc1ccc(O)c(O)c1)C(=O)O | inactive: -0.711%
